In article PMC7480106:

Molecular target: Igκ-Nrxn1β^SS4-SS5--ECD-ΔCHO-Myc-6xHis (HEK293S GnTI−, BacMam) (mouse)
Test: SEC-MALS

stoichiometry N: 1
Substance: FAM19A1-V5 (HEK293S GnTI−, BacMam) (from UniProt Q7TPG8 20-133) (ligand)
